Test results reported in patent publication US11472832B2, “Withanolides useful for the treatment of neurodegenerative diseases” (priority 2013, dated 2022).

What was measured:
C57BL/6 female mice = details: Patwardhan et al. 2006; cited from earlier work
in vivo = details: female, C57BL/6, mouse, ip

For `CC1=C(CO)C(=O)O[C@@H]([C@@H](C)[C@H]2CC[C@H]3[C@@H]4C[C@H]5O[C@]56[C@@H](O)C=CC(=O)[C@]6(C)[C@H]4CC[C@]23C)C1` [WA, Withaferin A, reference compound], the LD50 previously reported (C57BL/6 female mice) is given as 54 mg/kg and the LD50 at 24 h (in vivo) is given as 55 mg/kg.
